# Key:
# [1] = test system: Id1; assay: Id1 mRNA expression by qPCR in NIH3T3 cells; type: cell-based, mouse; details: serum-starved NIH3T3, 20 ng/ml BMP2 vs 20% serum
# [2] = test system: phospho-Smad1/5/8; assay: Phospho-Smad1/5/8 immunoblot in NIH3T3 cells; type: cell-based, mouse; details: starved NIH3T3, 20 ng/ml BMP2 for 1 hour
molecule,measurement,setting,value
"BMP2: recombinant human BMP2 (Sino Biological Inc.) (protein, UniProt P12643 283-396, looked up) Bone morphogenetic protein 2: QAKHKQRKRLKSSCKRHPLYVDFSDVGWNDWIVAPPGYHAFYCHGECPFPLADHLNSTNHAIVQTLVNSVNSKIPKACCVPTELSAISMLYLDENEKVVLKNYQDMVVEGCGCR",induction of Id1 expression compared with serum,[1],about twice as strongly as serum
same,phosphorylation of Smad1/5/8,[2],induced the phosphorylation
